Compound activity deposited in PubChem by Broad Institute.
PDI turbidity: PDI (human) enzyme inhibition; hit rate 0.052% among 350,000; inhibition, % at 10 µM; PDI insulin aggregation turbidity, A650, 90 min;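 active = mean inhibition across replicates of 30% or more, whatever share of single replicates reach that level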
ERp5 inh: blocks human ERp5 reductase activity on insulin. inhibition, % at 9.99 µM. Q15084. hit rate 0.05% among 350,000. AID 651711. ERp5 insulin aggregation, absorbance 650 nm, 90 min;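 active = mean replicate inhibition above about 25%, with every replicate also reaching it, limit read from the data, passing the limit was not always enough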
ARNT-TACC3 inh: disrupts binding between human ARNT and TACC3; Q9Y6A5; inhibition, % at 9.99 µM; AlphaScreen His-ARNT PAS-B/GST-TACC3 binding, luminescence; TACC3 fragment carries E629A point mutation; hit rate 0.66% among 390,000;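 active = mean inhibition of replicates at least 50% and at least half of replicates each reaching 50%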;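 also: 0% = complete ARNT plus TACC3 wells and 100% = ARNT alone without TACC3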
FGF22 binding-1: shifts melting point of recombinant human FGF22 | AID 651658 | activity (Tm shift, normalised), % at 9.99 µM | hit rate 1.5% among 340,000 | recombinant FGF22 thermal shift, SYPRO orange fluorescence; percent of sucrose octasulfate shift, DMSO zero | Q9HCT0;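 active = mean Tm shift, scaled 0 neutral to 100 positive control, at about 1.3% or above, every replicate too, limit read from the data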
PglD inh: PglD (C. jejuni) enzyme inhibition; hit rate 0.098% among 360,000; purified PglD enzyme, DTNB colorimetric CoA detection; inhibition, % at 12.5 µM; AID 602405; in the data active = inhibition above about 16%, passing the limit was not always enough
UUG fidelity: alters start codon recognition fidelity in yeast. S. cerevisiae UUG-firefly luciferase reporter, luminescence/redox ratio. 350,000 tested, 0.13% active. activity score, % at 18.7 µM. AID 602363;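 active means replicate mean at a twofold rise or more, about +100% in these data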;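 further: firefly luciferase made from a UUG start codon reports start codon fidelity; reporter light over untreated wells divided by growth signal over untreated wells; some hits fall short of that in this replicate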
FGF22 binding-2: binders of human FGF22 by thermal shift | thermal shift activity, °C (ΔTm) at 38 µM | recombinant FGF22 thermal shift, SYPRO orange fluorescence | shares compounds with FGF22 binding-1 | AID 720646 | hit rate 2% among 1,000;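 active = fitted rise in melting shift crosses a set limit at or below the top valid dose tested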
TSA no protein: shows thermal shift signal without protein, FGF22 counter-screen. shares compounds with FGF22 binding-1. compound-only SYPRO orange thermal shift counter-screen, no protein. AC50, µM (doses to about 38 µM). hit rate 2% among 1,000. AID 743019;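 active = rising signal whose fitted curve reaches the 0.54 level within the top valid dose, showing a melting point, actives reach about 13 µM in these data; inactive = the rest, including activity in the opposite direction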; also: value is where the raw curve crosses a fixed level and not half-maximal
Active calls of the source: *; ! = not active in a repeat; [ ] = dose if it differs, or a comment. This is a sample that favours compounds with a hit; in the whole collection about 1.9% have one here.

Screening COc1ccc(NC(=O)N(C)C[C@H]2OCCCC[C@H](C)Oc3ccc(NC(=O)CCCN(C)C)cc3C(=O)N([C@H](C)CO)C[C@@H]2C)cc1 returned ERp5 inh -2, ARNT-TACC3 inh -8, FGF22 binding-1 0, PglD inh -2 and UUG fidelity 8.
O=C(Cn1cc(COc2ccc(Br)cc2)nn1)c1ccc(O)cc1 was read as PDI turbidity 2, ERp5 inh -3, ARNT-TACC3 inh -6, FGF22 binding-1 1.5*, PglD inh 2, UUG fidelity -14, FGF22 binding-2 0.019 and TSA no protein inactive.
`CCCC(=O)c1ccc(OCc2cn(CC(=O)c3ccc(O)cc3)nn2)cc1` gave PDI turbidity 1, ERp5 inh -3, FGF22 binding-1 1.5*, PglD inh 7, UUG fidelity 82, FGF22 binding-2 0.04 and TSA no protein inactive.
O=Cc1cccc(OCc2cn(CC(=O)c3ccc(O)cc3)nn2)c1 was read as PDI turbidity 4, ERp5 inh 6 and FGF22 binding-1 0.
CC(=O)c1cc(C)c(OCc2cn(CC(=O)c3ccc(O)cc3)nn2)c(C)c1 was read as PDI turbidity 1, ERp5 inh -6, ARNT-TACC3 inh 0, FGF22 binding-1 0, PglD inh 5 and UUG fidelity -16.
`O=C(NNC(=O)C1CCN(S(=O)(=O)c2ccccc2C(F)(F)F)CC1)c1ccccc1O` gave PDI turbidity 3, ERp5 inh -1, ARNT-TACC3 inh 13, FGF22 binding-1 2.6*, PglD inh -2, UUG fidelity -12, FGF22 binding-2 -0.15 and TSA no protein inactive.
Cc1nc(NC(=O)C2CC2)sc1C(=O)Nc1ccccc1Cl was read as PDI turbidity -5, ERp5 inh 0, ARNT-TACC3 inh 0, FGF22 binding-1 1.9*, PglD inh 7, UUG fidelity 5, FGF22 binding-2 0.081 and TSA no protein inactive.
CCCNC(=O)C[C@H]1CC[C@H]2[C@H](COc3ccc(NS(=O)(=O)c4ccccc4C)cc3C(=O)N2C)O1 was read as ERp5 inh 2, ARNT-TACC3 inh -8, PglD inh 2 and UUG fidelity 4.
CNC(=O)C[C@@H]1CC[C@@H]2[C@@H](COc3ccc(NS(=O)(=O)c4ccccc4C)cc3C(=O)N2C)O1 was read as ERp5 inh 0, ARNT-TACC3 inh 3, FGF22 binding-1 20*, PglD inh 3, UUG fidelity -6, FGF22 binding-2 -0.018[42 µM] and TSA no protein inactive.
Screening CNC(=O)C[C@@H]1CC[C@@H]2[C@H](COc3ccc(NC(=O)c4cccc(F)c4)cc3C(=O)N2C)O1 returned ERp5 inh -3, ARNT-TACC3 inh 4, FGF22 binding-1 16*!, PglD inh 0, UUG fidelity -20, FGF22 binding-2 0 and TSA no protein inactive.
For Cc1noc(C)c1NC(=O)N(C)C[C@@H]1Oc2c(NS(=O)(=O)c3ccccc3)cccc2C(=O)N([C@@H](C)CO)C[C@H]1C the results were ERp5 inh -20, ARNT-TACC3 inh -2, FGF22 binding-1 0, PglD inh -5 and UUG fidelity -13.
CNC(=S)N(Cc1ccc(OC)cc1)C1CC(=O)N(c2ccc(C(=O)OC)cc2)C1=O (centres undefined) was read as ERp5 inh 5, FGF22 binding-1 2.2*, FGF22 binding-2 -0.043 and TSA no protein inactive.
For CC(C)(C)[S@](=O)N1Cc2cc(C(=O)N[C@H]3CCN(Cc4ccccc4)C3)nc(-c3cccc(-c4ccncc4)c3)c2[C@@H]1CCO the results were ERp5 inh 0 and FGF22 binding-1 0.
For CC(C)(C)[S@](=O)N1Cc2cc(C(=O)N[C@@H]3CCN(Cc4ccccc4)C3)nc(-c3cccc(-c4cccnc4)c3)c2[C@@H]1CCO the results were ERp5 inh 0, ARNT-TACC3 inh 14, FGF22 binding-1 2.1*, PglD inh 1, FGF22 binding-2 -0.1[42 µM] and TSA no protein inactive.

Compounds shown so far that have fluorine, in the order listed:
`O=C(NNC(=O)C1CCN(S(=O)(=O)c2ccccc2C(F)(F)F)CC1)c1ccccc1O` gave PDI turbidity 3, ERp5 inh -1, ARNT-TACC3 inh 13, FGF22 binding-1 2.6*, PglD inh -2, UUG fidelity -12, FGF22 binding-2 -0.15 and TSA no protein inactive.
Screening CNC(=O)C[C@@H]1CC[C@@H]2[C@H](COc3ccc(NC(=O)c4cccc(F)c4)cc3C(=O)N2C)O1 returned ERp5 inh -3, ARNT-TACC3 inh 4, FGF22 binding-1 16*!, PglD inh 0, UUG fidelity -20, FGF22 binding-2 0 and TSA no protein inactive.
